Reference: PubChem BioAssay AID540259 (Broad Institute, 2011)
The entries are a selection whose mix differs from that of the whole data set. Measured potencies and affinities stand elsewhere. Activity calls are given as the source filed them.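 The calls were made as follows: active = cell killing, meaning signal decrease, with fitted half-maximal dose at or below ten times the top valid tested dose; inconclusive = poor fit, or flat curve with 30 to 70% signal loss; inactive = the rest.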

Test: HeLa cell cytotoxicity, dose response, cytotoxicity control for MITF activator project, CellTiter-Glo luminescence, cherry-pick samples (AID 540259);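 also: 0% = DMSO neutral control and -100% = mitoxantrone positive control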
Conditions: HeLa viability, CellTiter-Glo ATP luminescence, 24 h; at 35 µM (top of the series)

Oc1ccc(/C=C/c2cc(O)cc(O)c2)cc1
activity change, negative = cytotoxicity: inactive: 12.3%
